# Test results as given in PubChem BioAssay AID720504 (National Center for Advancing Translational Sciences (NCATS), 2013).
# The chains behind the UniProt entries cited, without tags or fusion partners.
# UniProt P53350, whole entry: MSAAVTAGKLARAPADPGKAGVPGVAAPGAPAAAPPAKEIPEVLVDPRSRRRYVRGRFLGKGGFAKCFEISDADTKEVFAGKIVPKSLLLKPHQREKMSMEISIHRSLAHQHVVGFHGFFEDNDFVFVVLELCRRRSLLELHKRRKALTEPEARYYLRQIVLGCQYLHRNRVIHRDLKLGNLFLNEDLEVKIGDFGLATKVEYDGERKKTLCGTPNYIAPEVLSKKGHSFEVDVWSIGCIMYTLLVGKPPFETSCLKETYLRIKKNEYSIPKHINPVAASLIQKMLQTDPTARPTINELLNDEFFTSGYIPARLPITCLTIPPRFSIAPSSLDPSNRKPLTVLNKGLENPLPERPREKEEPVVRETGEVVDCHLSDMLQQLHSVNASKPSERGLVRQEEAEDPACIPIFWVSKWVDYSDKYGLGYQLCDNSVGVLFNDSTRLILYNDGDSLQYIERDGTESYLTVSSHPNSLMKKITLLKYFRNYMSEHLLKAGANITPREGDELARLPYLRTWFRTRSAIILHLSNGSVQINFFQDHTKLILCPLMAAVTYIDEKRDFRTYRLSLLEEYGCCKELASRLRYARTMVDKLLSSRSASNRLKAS
# Only a part is listed here, and it is no random draw. Records with an inconclusive call do not appear. Active and inactive are the calls of the source. The call rests on the fitted dose curve; in most records, active means well fitted inhibition curve with a large enough effect; inconclusive means small, poorly fitted or top-dose-only effect; inactive means flat fitted curve, though single readings scatter.
# Target: Serine/threonine-protein kinase PLK1 (Homo sapiens) (UniProt P53350)
# Assay: qHTS for Inhibitors of PLK1-PDB (polo-like kinase 1 - polo-box domain): Primary Screen; further: series mostly up to about 57 µM; nearly all actives have a fitted effect of over 65% in size
# Conditions: Plk1 PBD binding of FITC phosphopeptide, fluorescence polarization
# On the % scale 0 is the no-effect control and ±100 the full control effect.
row,SMILES,"max response, negative = inhibition"
1,CCC(=O)N(c1ccccc1)C1(COC)CCN(CCc2cccs2)CC1,inactive: -6.48%
2,CCC(=O)N(c1ccccc1)C1(COC)CCN(CCn2nnn(CC)c2=O)CC1,inactive: -4.64%
